Assay [1] deals with Protein kinase C eta type (Homo sapiens, UniProt P24723). Nature of the assay: Inhibition of PKCeta (unknown origin).
Assay [2] addresses Protein kinase C beta type (Homo sapiens, UniProt P05771). Nature of the assay: Inhibition of PKCbeta2 (unknown origin).
Assay [3] concerns the target Inhibitor of nuclear factor kappa-B kinase subunit beta (Homo sapiens, UniProt O14920). The experiment in a line: Inhibition of IKKbeta (unknown origin).
For assay [4], the target named is Serine/threonine-protein kinase VRK2 (Homo sapiens, UniProt Q86Y07). Nature of the assay: Inhibition of VRK2 (unknown origin).
Assay [5] has as its target T1, Dual specificity tyrosine-phosphorylation-regulated kinase 2 (Homo sapiens, UniProt Q92630).
T1 sequence (Q92630 whole entry): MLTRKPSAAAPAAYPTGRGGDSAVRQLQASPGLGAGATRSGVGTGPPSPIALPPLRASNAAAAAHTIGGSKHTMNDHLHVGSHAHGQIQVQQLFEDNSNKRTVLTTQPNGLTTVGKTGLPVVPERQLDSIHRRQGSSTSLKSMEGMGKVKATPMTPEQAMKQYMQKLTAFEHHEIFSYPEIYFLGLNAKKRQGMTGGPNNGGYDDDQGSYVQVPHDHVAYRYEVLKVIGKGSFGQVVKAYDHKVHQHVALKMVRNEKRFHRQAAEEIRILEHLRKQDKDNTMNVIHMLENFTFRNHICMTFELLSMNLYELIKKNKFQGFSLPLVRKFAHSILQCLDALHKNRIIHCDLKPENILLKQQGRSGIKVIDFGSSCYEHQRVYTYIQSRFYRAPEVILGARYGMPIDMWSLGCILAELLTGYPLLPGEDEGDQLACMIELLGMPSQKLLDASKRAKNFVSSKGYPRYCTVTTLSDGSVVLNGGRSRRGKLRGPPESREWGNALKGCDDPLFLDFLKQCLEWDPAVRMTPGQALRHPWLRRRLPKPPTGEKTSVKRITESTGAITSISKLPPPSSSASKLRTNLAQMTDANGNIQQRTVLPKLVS
The experiment in a line: Inhibition of DYRK2 (unknown origin).

By UniProt entry, the sequences of proteins in these tests, tags left out. Where a name states a change or a piece, a line headed by the entry shows the natural chain unless it says otherwise.
UniProt P05771, whole entry: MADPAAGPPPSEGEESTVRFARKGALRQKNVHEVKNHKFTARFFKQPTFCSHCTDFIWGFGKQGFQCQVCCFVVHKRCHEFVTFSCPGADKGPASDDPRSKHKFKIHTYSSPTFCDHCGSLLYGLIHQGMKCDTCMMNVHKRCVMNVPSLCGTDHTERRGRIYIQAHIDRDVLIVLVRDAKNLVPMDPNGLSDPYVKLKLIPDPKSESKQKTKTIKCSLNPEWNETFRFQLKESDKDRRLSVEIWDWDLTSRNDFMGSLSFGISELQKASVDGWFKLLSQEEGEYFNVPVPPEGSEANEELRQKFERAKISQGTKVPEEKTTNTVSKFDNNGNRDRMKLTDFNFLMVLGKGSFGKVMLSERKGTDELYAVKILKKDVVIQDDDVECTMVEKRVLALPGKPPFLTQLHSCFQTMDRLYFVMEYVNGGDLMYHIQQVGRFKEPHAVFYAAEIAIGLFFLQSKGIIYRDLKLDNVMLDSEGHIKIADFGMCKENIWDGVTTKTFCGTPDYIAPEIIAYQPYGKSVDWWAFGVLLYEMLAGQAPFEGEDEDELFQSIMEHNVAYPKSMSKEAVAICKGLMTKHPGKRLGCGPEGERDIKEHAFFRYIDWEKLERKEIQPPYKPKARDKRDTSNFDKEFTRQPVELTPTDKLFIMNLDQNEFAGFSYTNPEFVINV
UniProt Q8N4C8: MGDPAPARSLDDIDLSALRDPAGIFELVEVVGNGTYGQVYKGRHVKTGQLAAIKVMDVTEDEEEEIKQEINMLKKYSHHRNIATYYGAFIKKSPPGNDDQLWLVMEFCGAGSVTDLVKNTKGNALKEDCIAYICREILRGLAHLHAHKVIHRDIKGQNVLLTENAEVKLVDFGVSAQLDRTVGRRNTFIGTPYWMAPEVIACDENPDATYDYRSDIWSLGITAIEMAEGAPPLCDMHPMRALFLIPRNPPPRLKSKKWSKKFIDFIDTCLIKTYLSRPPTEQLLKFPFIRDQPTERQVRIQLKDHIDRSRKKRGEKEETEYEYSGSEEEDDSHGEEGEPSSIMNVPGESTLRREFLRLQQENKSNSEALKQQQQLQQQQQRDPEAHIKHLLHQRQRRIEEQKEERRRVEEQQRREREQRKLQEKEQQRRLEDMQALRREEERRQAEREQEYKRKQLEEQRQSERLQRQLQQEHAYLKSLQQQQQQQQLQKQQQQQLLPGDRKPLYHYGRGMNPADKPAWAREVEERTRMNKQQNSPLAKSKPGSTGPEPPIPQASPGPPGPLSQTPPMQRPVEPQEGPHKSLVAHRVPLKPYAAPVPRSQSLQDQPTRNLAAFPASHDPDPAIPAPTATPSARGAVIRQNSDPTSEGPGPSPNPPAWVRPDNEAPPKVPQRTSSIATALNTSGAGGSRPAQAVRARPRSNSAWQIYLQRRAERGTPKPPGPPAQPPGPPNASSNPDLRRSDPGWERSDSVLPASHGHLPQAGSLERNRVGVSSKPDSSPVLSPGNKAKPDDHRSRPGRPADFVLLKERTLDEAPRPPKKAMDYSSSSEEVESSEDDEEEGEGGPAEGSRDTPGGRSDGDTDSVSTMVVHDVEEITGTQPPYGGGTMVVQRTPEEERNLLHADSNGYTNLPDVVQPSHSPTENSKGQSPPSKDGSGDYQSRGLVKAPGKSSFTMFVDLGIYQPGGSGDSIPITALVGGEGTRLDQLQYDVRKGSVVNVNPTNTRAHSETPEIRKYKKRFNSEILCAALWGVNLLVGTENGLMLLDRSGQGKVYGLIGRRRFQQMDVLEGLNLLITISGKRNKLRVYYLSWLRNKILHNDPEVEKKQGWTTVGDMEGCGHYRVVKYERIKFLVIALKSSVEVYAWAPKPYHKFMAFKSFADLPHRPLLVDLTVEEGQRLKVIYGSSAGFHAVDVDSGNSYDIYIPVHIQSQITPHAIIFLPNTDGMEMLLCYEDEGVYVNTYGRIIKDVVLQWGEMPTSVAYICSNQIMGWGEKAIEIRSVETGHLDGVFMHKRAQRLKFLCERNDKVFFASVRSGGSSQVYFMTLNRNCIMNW
UniProt Q9Y3S1: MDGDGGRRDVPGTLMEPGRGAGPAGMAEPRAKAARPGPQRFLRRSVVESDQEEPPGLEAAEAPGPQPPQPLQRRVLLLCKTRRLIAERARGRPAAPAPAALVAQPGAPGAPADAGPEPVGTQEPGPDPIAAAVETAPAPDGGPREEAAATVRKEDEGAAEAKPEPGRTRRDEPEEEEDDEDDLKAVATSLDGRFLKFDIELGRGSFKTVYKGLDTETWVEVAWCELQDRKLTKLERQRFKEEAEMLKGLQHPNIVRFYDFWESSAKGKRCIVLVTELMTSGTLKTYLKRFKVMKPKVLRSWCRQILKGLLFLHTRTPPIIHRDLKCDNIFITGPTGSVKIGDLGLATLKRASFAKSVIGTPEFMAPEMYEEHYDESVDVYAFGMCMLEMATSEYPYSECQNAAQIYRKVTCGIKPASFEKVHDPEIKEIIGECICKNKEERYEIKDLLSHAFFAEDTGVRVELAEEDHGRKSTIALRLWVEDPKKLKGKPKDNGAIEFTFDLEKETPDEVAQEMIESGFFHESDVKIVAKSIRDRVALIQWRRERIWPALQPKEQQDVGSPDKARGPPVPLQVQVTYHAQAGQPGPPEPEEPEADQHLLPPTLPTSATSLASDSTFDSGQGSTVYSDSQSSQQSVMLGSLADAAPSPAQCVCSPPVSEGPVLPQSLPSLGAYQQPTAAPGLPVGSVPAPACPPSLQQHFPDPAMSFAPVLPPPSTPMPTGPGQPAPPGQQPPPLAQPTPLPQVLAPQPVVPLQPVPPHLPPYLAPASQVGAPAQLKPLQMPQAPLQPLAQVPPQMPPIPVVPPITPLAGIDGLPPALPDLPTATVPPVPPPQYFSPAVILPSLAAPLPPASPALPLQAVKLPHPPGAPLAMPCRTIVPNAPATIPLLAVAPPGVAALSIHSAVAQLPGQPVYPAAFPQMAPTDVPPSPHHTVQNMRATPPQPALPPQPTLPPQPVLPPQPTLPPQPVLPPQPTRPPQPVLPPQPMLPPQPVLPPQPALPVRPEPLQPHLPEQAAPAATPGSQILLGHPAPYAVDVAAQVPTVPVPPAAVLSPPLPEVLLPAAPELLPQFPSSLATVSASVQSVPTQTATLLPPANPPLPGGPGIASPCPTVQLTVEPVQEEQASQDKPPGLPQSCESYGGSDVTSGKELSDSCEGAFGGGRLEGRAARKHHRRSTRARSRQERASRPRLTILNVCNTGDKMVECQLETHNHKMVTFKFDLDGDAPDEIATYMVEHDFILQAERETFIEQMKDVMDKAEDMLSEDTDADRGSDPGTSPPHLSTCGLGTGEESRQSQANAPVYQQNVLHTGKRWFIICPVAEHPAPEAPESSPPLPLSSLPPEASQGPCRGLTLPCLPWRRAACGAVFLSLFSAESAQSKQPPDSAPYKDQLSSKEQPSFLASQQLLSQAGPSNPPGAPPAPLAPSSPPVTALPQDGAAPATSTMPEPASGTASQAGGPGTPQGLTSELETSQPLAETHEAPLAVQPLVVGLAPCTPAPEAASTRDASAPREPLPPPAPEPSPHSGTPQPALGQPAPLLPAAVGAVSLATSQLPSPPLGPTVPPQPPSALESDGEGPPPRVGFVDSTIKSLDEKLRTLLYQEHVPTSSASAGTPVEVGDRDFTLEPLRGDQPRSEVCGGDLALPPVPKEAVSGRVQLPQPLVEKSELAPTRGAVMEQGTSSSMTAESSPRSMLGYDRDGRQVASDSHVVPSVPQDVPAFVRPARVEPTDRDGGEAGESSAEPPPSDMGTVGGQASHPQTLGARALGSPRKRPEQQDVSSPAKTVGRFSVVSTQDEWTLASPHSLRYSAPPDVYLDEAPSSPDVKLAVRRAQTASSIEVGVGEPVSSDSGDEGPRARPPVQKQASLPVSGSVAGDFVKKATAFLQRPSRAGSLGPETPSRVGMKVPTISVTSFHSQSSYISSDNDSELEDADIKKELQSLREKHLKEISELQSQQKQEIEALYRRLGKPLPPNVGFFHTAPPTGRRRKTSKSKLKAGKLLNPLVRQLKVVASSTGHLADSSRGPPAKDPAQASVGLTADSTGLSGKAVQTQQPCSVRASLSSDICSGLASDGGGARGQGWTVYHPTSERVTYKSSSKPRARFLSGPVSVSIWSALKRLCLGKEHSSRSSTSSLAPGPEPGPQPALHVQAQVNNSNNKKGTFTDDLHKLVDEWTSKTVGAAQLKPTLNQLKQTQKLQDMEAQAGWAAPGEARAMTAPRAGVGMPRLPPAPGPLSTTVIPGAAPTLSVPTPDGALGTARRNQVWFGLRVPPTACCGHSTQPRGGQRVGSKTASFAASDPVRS
UniProt P21802, whole entry: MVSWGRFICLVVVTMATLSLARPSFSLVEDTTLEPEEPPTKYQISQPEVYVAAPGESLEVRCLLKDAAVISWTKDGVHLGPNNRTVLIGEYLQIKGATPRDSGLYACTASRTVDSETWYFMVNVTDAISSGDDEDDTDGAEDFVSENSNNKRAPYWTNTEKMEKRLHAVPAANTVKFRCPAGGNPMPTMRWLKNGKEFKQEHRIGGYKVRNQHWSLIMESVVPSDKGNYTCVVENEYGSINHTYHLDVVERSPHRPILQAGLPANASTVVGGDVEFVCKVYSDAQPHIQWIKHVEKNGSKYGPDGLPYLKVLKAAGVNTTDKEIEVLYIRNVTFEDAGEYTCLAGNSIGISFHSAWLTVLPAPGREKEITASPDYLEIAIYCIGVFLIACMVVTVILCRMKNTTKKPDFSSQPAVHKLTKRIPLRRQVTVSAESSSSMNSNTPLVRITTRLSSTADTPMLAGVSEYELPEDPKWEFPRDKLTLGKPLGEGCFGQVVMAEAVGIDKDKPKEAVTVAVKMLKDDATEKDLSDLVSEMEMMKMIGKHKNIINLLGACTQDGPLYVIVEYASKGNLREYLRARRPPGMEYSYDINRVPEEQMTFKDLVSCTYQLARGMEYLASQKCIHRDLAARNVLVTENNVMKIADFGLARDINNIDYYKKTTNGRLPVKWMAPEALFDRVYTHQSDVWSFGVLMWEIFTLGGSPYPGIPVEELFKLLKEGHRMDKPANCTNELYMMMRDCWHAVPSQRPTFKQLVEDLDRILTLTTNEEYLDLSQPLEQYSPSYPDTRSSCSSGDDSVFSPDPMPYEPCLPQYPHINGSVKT
UniProt Q14289, whole entry: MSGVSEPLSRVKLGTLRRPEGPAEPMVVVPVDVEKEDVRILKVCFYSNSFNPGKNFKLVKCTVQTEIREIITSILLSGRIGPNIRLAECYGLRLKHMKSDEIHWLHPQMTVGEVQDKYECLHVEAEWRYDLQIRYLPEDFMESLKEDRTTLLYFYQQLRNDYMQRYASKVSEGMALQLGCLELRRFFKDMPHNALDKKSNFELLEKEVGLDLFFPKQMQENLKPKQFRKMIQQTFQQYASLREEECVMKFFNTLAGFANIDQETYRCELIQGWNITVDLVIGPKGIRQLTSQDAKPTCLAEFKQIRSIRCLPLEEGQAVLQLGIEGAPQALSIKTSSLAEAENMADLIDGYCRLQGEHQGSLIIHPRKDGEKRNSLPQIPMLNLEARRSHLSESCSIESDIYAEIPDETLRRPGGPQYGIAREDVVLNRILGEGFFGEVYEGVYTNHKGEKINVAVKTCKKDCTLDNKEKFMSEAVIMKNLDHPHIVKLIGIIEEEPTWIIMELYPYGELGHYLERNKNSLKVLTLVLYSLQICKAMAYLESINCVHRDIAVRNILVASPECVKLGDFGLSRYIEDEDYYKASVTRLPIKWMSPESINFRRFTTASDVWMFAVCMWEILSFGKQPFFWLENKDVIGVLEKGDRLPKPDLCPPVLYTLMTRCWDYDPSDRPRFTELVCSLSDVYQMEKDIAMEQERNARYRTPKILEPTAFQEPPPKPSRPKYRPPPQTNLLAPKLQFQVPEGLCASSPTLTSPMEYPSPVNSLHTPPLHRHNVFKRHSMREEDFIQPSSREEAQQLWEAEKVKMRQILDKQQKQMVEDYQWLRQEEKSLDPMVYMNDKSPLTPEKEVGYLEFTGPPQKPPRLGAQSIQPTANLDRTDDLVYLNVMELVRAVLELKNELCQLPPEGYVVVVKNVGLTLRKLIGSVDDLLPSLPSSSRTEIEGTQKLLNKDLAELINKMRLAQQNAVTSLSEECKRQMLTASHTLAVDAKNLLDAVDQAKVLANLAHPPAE

A short description of assay [6]: Inhibition of EPH4 (unknown origin). The arrangement: species or system Homo sapiens.
Assay [7] addresses LIM domain kinase 1 (Homo sapiens, UniProt P53667). Nature of the assay: Inhibition of LIMK1 (unknown origin).
Assay [8] is described as follows: Inhibition of IRK (unknown origin). Further details: species or system Homo sapiens.
In assay [9] the target is Misshapen-like kinase 1 (Homo sapiens, UniProt Q8N4C8). Nature of the assay: Inhibition of MINK (unknown origin).
The target of assay [10] is Serine/threonine-protein kinase WNK2 (Homo sapiens, UniProt Q9Y3S1). The experiment in a line: Inhibition of WNK2 (unknown origin).
Assay [11] deals with Fibroblast growth factor receptor 2 (Homo sapiens, UniProt P21802). The experiment in a line: Inhibition of FGFR2 (unknown origin).
For assay [12], the target named is Rho-associated protein kinase 1 (Homo sapiens, UniProt Q13464). Nature of the assay: Inhibition of ROCK1 (unknown origin).
The target of assay [13] is T2, Tyrosine-protein kinase receptor UFO (Homo sapiens, UniProt P30530).
T2 sequence (P30530 whole entry): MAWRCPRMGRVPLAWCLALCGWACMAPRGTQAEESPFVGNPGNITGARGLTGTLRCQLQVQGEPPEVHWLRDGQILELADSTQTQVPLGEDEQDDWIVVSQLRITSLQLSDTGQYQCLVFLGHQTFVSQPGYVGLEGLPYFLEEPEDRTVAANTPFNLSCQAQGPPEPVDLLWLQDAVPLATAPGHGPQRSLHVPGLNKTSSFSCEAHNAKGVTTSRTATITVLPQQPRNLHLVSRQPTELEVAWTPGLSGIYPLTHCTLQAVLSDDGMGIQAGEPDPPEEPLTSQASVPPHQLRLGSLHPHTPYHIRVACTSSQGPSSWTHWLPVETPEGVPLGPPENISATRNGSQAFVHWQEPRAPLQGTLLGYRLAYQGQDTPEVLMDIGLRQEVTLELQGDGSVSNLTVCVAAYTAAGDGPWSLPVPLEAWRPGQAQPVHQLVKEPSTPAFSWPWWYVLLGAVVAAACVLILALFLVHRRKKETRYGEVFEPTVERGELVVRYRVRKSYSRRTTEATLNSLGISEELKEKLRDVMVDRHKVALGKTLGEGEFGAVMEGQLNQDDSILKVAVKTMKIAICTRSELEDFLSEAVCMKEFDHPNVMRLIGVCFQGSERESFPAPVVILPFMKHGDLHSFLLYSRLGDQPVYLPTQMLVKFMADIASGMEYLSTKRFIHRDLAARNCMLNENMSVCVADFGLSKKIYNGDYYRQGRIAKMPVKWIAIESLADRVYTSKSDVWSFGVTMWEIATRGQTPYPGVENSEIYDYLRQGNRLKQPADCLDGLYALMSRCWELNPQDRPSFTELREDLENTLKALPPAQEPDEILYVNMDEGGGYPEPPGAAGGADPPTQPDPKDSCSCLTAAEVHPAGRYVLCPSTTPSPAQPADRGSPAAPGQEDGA
Nature of the assay: Inhibition of AXL (unknown origin).

The target of assay [14] is Protein-tyrosine kinase 2-beta (Homo sapiens, UniProt Q14289). Nature of the assay: Inhibition of PYK2 (unknown origin).

The record followed here is ChEMBL document CHEMBL2331117 (J Med Chem, 2013).

For orientation: IC50 means the point on the concentration scale where inhibition reaches its midpoint.

On to `Cc1c(C(=O)N2CCOc3ccc(-c4ccc(N)nc4)cc3C2)ccc(S(C)(=O)=O)c1F`, for which the IC50 in assay [1], in assay [2], in assay [3], in [4], in assay [5] and in assay [6] was over 10 µM each time. The IC50 in assay [7] is over 10 µM; in assay [8], over 3.5 µM; in assay [9], over 10 µM; in assay [10], over 10 µM; in assay [11], over 10 µM; in assay [12], over 10 µM. Further, the IC50 in assay [13] and in [14] was over 10 µM in each case.
